Results on four compounds are retold here after patent publication US11919883B2, “Metalloenzyme inhibitor compounds” (Ji Xing Pharmaceuticals Hong Kong Limited, priority 2016, dated 2024).

Sequences of proteins named here, by UniProt entry; tags and fusion partners are left off. Residues count along the entry.
UniProt P19099, 25-503 limits assumed: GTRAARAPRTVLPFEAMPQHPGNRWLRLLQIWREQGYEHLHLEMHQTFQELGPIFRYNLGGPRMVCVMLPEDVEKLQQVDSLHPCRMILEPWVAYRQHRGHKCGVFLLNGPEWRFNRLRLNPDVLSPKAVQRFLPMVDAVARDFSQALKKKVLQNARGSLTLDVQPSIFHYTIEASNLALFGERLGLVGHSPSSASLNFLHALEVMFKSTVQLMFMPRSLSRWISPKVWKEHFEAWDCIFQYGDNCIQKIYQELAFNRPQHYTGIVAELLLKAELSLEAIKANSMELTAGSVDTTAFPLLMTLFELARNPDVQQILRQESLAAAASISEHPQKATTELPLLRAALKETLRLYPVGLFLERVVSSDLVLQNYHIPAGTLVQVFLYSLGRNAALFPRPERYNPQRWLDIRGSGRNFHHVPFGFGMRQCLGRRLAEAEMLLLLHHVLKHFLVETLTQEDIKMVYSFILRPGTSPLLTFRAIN
UniProt P15538, 25-503 limits assumed: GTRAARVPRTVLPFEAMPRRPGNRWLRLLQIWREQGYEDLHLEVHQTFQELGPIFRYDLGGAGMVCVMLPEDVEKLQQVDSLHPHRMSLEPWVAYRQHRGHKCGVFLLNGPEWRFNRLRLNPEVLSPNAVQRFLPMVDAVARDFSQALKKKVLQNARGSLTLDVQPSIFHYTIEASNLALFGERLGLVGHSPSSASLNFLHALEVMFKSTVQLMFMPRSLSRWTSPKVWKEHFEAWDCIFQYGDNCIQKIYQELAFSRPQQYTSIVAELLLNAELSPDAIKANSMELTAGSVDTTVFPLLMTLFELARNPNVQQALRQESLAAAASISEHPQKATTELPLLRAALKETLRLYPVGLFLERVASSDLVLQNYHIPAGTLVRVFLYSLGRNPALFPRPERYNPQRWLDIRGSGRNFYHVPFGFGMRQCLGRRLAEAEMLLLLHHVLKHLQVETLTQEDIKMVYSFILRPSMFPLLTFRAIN

For orientation: IC50 means the concentration at which inhibition is half-maximal.

Read-outs that look alike come from different tables or passages of the source.

A short description of data set [1]: Cyno liver microsome stability. It counts as in vitro ADME, cynomolgus monkey. The following applies: % Compound remaining at 65 min in cyno liver microsomes. A general note: Liver microsomes are a subcellular fraction often used to study metabolism.
Data set [2] addresses recombinant human CYP11B2 (Homo sapiens, UniProt P19099). Put plainly: CYP11B2 enzyme assay, enzyme enriched microsomes from V79-4 cells, aldosterone by LC-MS. The following applies: for Selectivity: CYP11B1 IC50/CYP11B2 IC50. It counts as biochemical.
Data set [3] has as its target recombinant human CYP11B1 (Homo sapiens, UniProt P15538). Put plainly: CYP11B1 enzyme assay, enzyme enriched microsomes from V79-4 cells, cortisol by LC-MS. It counts as biochemical. The following applies: for inhibition of CYP11B1 / selectivity for CYP11B2 over CYP11B1: pyridine replacing the pyrimidine of compounds of Formula I.
Data set [4] is described as follows: Rat liver microsome stability. It counts as in vitro ADME. The following applies: % Compound remaining at 65 min in rat liver microsomes.
Where [5] appears, read: read-out: CYP11B2 IC50, Table 3 comparison.
Setting [6] is: read-out: CYP11B1 IC50, Table 3 comparison.

For the compound `Fc1ccc2nc(-c3cccnc3)n(C3CC3)c2c1`, the “Cyno LM Stability” value in data set [1] was determined as 1%. In addition, in data set [2], the Selectivity came out at 192. The results for the IC50 in data set [2] (setting [5]) and in data set [3] (setting [6]) were 5 nM and 858 nM, respectively. The “inhibition of CYP11B1 / selectivity for CYP11B2 over CYP11B1” value in data set [3] is on record as “increased inhibition of CYP11B1 and/or a significant loss of selectivity for CYP11B2 over CYP11B1”. In data set [4], the “Rat LM Stability” value is given as 12%.

Regarding `Fc1cc2nc(-c3cncnc3)n(C3CC3)c2cc1Cl`, the IC50 in data set [2] (read-out: hCYP11B2 IC50, IC50 ranges, run at Km of 11-deoxycorticosterone) lay in the range of 1 to 100 nM; in data set [3] (read-out: hCYP11B1 IC50, IC50 ranges, run at Km of 11-deoxycortisol), 1000 to 10000 nM.

As for `Fc1cc2nc(-c3cnccc3C(F)(F)F)n(C3CC3)c2cc1F`, the “Cyno LM Stability” value in data set [1] was 58%. The Selectivity in data set [2] was 115. The figures for the IC50 in data set [2] (setting [5]) and in data set [3] (setting [6]) were 36 nM and 4120 nM, respectively. Also, in data set [3], the “inhibition of CYP11B1 / selectivity for CYP11B2 over CYP11B1” value is reported as “increased inhibition of CYP11B1 and/or a significant loss of selectivity for CYP11B2 over CYP11B1”. Moreover, in data set [4], the “Rat LM Stability” value was determined as 52%.

For `Cc1ccncc1-c1nc2cc(F)c(F)cc2n1C1CC1`, the “Cyno LM Stability” value in data set [1] is on record as 25%. Besides, the “Rat LM Stability” value in data set [4] is 22%.
